Data as given in patent publication US20130333715A1, “SHAMPOO COMPOSITIONS AND METHODS OF MAKING SAME” (The Procter & Gamble Company, priority 2012, published 2013).

Assays:
[1] = Calculated conditional stability constants for chelants with Fe^+3 at specified pH; settings: pH 5
Text: The gradual change in ligand species as pH changes can be represented using alpha (α) coefficients, defined as: [formula] […] By combining stability (K) and alpha (α) constants at a given pH, the formula below provides the effective chelating power of a chelant.

[2] = Calculated conditional stability constants for chelants with Cu^+2 at specified pH; assay type: physicochemical
Text: However, as the pH range of the present compositions are acidic (i.e., less than 7), the log alpha value (αm) is considered to be constant and approximately negligible.
The calculated stability constants for a range of chelants with Fe^+3, Cu^+2, and Ca^+2 are given below in Table 3: […]

[3] = 1:1 complex, fully deprotonated chelant, 25° C., 0.1M ionic strength; cited from earlier work

O=C(O)CC(NCCNC(CC(=O)O)C(=O)O)C(=O)O (mixture of isomers) [EDDS, ethylene diamine disuccinic acid]
log Conditional Stability Constant (@ pH) Fe^+3 [1]: 15.11 | log Conditional Stability Constant (@ pH) Cu^+2 ([2]; pH 7): 15.06

O=P(O)(O)CN(CCN(CP(=O)(O)O)CP(=O)(O)O)CP(=O)(O)O [EDTMP]
log K Fe [3]: 6.5

CC(C(=O)O)N(CC(=O)O)CC(=O)O (stereo not shown) [MGDA, methylglycinediacetic acid]
log Conditional Stability Constant (@ pH) Cu^+2 ([2]; pH 8): 11.11
